Tested on: β3 -AR
Format: in vivo, mouse
Details: β3 -AR-deficient mice; fifteen minutes after injection; 10 mg/ml
Description: Mice that received norepinephrine were anesthetized with pentobarbital for the study.
Oxygen consumption was measured as described by Lowell et al. (supra) in twelve-week-old control, β3 -AR-deficient male mice, and β3 -AR-deficient knockout mice expressing the human β3-AR gene.

For CC(C)(C)NCC(O)COc1cccc2[nH]c(=O)[nH]c12 (stereo not shown) [CGP-12177], the oxygen consumption was “decreased oxygen consumption”.

Reference: US5789654A, “Transgenic animals deficient in endogenous β3 -adrenergic receptor and uses thereof” (Beth Israel Hospital Association, priority 1996, dated 1998)
